Biological target: CYP1A2 (Homo sapiens, UniProt P05177)
Conditions: 8HUM, mouse, microsomes, 3.33 μM, pH 7.4

Chains of the proteins cited; added tags and fusions are not shown.
UniProt P05177, whole entry: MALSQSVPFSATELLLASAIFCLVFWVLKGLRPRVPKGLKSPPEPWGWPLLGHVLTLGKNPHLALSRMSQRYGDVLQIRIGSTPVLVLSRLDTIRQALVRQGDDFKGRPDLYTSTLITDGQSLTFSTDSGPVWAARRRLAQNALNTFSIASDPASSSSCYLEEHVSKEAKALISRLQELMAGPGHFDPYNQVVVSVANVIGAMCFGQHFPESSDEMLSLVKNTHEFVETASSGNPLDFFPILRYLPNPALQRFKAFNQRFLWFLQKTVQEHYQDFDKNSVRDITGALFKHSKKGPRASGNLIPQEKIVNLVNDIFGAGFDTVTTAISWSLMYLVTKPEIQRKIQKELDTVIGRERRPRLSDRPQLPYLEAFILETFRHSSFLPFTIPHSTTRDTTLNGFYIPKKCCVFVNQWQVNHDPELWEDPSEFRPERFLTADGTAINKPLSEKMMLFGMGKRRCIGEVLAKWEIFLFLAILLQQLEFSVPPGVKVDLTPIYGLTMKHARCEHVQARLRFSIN

O=c1cc(-c2ccccc2)oc2c1ccc1ccccc12 [α-naphthoflavone]
Inhibition of 7-methoxyresorufin metabolism: 93%
